Values of other authors as cited in US8013123B2, “Use of precursors of enkephalins and/or their fragments in medical diagnostics” (B.R.A.H.M.S. GmbH, priority 2004, dated 2011).

Protein sequences, listed by entry. Tags and fused reporters are not part of them. Lines headed by an entry give the natural chain unless they say otherwise; changes in a name come on top.
UniProt P01210: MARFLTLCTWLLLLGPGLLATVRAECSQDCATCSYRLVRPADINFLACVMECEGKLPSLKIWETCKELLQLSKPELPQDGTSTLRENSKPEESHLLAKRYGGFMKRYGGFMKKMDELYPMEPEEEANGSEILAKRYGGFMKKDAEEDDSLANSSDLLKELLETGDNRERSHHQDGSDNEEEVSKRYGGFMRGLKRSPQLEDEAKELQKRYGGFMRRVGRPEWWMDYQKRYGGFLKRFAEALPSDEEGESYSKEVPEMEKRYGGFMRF

Tested on: T-helper and cytotoxic T-cells
Details: cited from earlier work

## leucine enkephalin (YGGFL; Leu-enkephalin; UniProt P01210 230-234, looked up)
  proliferation: the proliferation
